Our source for the IC50 values is patent US11634412B2, “3-phosphoglycerate dehydrogenase inhibitors and uses thereof” (Raze Therapeutics, Inc., priority 2016, dated 2023).

The target of assay [1] is T1, Full length (FL) 3-Phosphoglycerate Dehydrogenase (PHGDH) (Homo sapiens, UniProt O43175).
T1 construct: Full length (FL) 3-Phosphoglycerate Dehydrogenase (PHGDH) Diaphorase coupled assay (500 uM NAD)
T1 sequence (O43175 1-533): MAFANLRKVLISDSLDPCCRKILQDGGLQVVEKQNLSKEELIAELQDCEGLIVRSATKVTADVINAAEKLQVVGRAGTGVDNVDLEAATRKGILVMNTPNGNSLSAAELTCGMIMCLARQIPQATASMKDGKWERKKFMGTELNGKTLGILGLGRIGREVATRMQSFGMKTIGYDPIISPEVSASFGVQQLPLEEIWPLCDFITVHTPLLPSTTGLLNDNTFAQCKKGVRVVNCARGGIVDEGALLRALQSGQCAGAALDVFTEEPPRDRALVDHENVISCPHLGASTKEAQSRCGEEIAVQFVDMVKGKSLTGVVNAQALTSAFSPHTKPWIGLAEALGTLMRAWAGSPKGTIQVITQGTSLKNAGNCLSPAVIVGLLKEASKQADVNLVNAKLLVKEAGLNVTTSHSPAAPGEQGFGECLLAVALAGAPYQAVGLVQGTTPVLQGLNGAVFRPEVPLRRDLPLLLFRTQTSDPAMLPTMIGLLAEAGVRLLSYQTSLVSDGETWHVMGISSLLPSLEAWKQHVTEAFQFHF
The assay is described as follows: Full length (FL) PHGDH Diaphorase coupled assay (20 uM NAD). The class given is biochemical. The conditions noted are these: full-length PHGDH 10 nM, 30° C. 60 minutes, resorufin fluorescence.

The target of assay [2] is T1, Full length (FL) 3-Phosphoglycerate Dehydrogenase (PHGDH). The assay is described as follows: Full length (FL) PHGDH Diaphorase coupled assay (500 uM NAD). As to conditions: full-length PHGDH 5 nM, 30° C. 60 minutes, resorufin fluorescence. The format is biochemical.

The IC50 is the concentration that gives 50% inhibition. A lower IC50 goes with greater potency. As for `Cn1c(C(=O)NC2(c3ccc(C(=O)O)cc3)COC2)cc2c(Cl)c(Cl)ccc21` (racemic) [I-127 e22], the IC50 in assay [1] fell in the range of 1 to 1000 nM.

Turning to `Cn1c(C(=O)NC2(c3ccc(CC(=O)O)cc3)COC2)cc2c(Cl)c(Cl)ccc21` [I-112 e159, 2-(4-(3-(4,5-Dichloro-1-methyl-1H-indole-2-carboxamido)oxetan-3-yl)-phenyl)acetic acid], the IC50 in assay [2] was in the range of 1 to 1000 nM.
